# Test results reported in patent US9206201B2, “Boronic acid bearing liphagane compounds as inhibitors of P13K-α and/or β” (COUNCIL OF SCIENTIFIC & INDUSTRIAL RESEARCH, priority 2012, dated 2015).
# By UniProt entry, the sequences of proteins in these tests, tags left out.
# UniProt P42336, whole entry: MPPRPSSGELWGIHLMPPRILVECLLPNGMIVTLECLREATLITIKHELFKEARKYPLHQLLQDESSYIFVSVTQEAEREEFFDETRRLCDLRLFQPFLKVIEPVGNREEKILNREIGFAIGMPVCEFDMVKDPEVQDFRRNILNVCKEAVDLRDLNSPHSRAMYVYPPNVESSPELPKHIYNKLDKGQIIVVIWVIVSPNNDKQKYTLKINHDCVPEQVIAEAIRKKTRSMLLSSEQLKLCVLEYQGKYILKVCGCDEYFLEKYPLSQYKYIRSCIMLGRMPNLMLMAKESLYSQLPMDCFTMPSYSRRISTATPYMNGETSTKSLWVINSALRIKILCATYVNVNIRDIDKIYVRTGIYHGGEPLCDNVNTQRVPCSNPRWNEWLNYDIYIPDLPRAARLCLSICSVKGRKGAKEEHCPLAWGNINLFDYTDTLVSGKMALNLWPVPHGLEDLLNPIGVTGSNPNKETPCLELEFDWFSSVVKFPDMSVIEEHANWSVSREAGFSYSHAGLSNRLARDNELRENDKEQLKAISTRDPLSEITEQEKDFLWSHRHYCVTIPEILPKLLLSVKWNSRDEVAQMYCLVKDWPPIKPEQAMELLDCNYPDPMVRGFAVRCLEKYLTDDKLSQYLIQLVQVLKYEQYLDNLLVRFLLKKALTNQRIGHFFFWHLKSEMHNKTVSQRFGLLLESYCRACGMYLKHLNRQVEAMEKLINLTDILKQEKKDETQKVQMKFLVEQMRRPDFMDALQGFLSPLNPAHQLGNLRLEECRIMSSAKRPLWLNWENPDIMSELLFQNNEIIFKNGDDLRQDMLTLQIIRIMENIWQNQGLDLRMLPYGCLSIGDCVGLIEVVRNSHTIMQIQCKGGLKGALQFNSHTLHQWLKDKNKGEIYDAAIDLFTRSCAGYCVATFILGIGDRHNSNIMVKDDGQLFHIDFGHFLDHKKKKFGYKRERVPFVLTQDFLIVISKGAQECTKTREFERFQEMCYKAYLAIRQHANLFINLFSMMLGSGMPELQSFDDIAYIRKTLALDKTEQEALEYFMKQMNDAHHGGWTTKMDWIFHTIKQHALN
# What was measured:
# MCF-7 = experiment: MTT cytotoxic assay, breast (MCF-7) cell line; conditions: read-out: cell based IC50 (MTT), 48 h
# caco-2 = experiment: MTT cytotoxic assay, colon (caco-2) cell line; conditions: read-out: cell based IC50 (MTT), 48 h
# HCT-115 = experiment: MTT cytotoxic assay, colon (HCT-115) cell line; conditions: read-out: cell based IC50 (MTT), 48 h
# PI3Kα = PI3Kα (Homo sapiens (Human), UniProt P42336); experiment: PI3K inhibition assay (PI3 Kinase activity/inhibitor assay kit), PI3Kα; format: biochemical; conditions: read-out: IC50 against PI3Kα
# Procedure: PI3K inhibition assay (PI3K Assay (Emmanuelle M, Huang […] et al. Targeting Protein Translation in Human Non-Small Cell Lung Cancer via Combined MEK and Mammalian Target of Rapamycin Suppression. Cancer Res 67:(23). (2007).) was carried out by PI3 Kinase activity/inhibitor assay kit, where PI3 kinase reaction was set up in Glutathione-coated strips/plate for inhibitor reaction. Kinase and inhibitors were pre-incubated for 10 minutes prior to the addition of PIP2 substrate. 5 μL of 5× kinase reaction buffer were added in each well followed by the further addition of 5 μL/well of PIP2 substrate. Then distilled H2O was added to each well so as to make up a final volume of 25 μL/well. Incubation was done at rt for 1 hour which was followed by washing the wells 3 times with 200 μL of 1×TBST per well and then 2 times with 200 μL of IX TBS per well. Then 100 μL of the Substrate TMB per well was added and then to keep for colour development in the dark for 5-20 minutes. However, appearance of the blue color to avoid over-development were monitored. 100 μL of the stop solution per well was used to stop the reaction. Readings were recorded at 450 nm. The IC50 value of a drug measures the effectiveness of a compound in inhibiting biological or biochemical function. […]
# [1] = system: caco-2, colon human cancer cell line; experiment: Cell cycle analysis by flow cytometry (propidium iodide); conditions: for percentage of sub-G0 cells: 24 h
# [2] = system: caco-2 colon human cancer cell line; experiment: Annexin-V apoptotic assay by flow cytometry; conditions: 48 h
smiles,measurement,setting,value
COc1cc2c3c(oc2c(B(O)O)c1OC)C(C)CC[C@@H]1C(C)(C)CCC[C@@]31C (relative stereo),IC50,MCF-7,3.1 µM
same,IC50,caco-2,5.6 µM
same,IC50,HCT-115,3.7 µM
same,IC50,PI3Kα,0.102 µM
same,percentage of sub-G0 cells,"[1]; caco-2, 1 μM",62.5%
same,percentage of sub-G0 cells,"[1]; caco-2, 5 μM",64.3%
same,percentage of sub-G0 cells,"[1]; caco-2, 7 μM",65.6%
same,percentage of sub-G0 cells,"[1]; caco-2, 9 μM",70.2%
same,cell cycle at G2/M phase,"[1]; caco-2, 24 h",not affected
same,cell population in early apoptotic phase,"[2]; caco-2, 1 μM",21.9%
same,percentage of late apoptotic cells,"[2]; caco-2, 1 μM",36.3%
same,cell population in early apoptotic phase,"[2]; caco-2, 5 μM",23.4%
same,percentage of late apoptotic cells,"[2]; caco-2, 5 μM",34.8%
same,cell population in early apoptotic phase,"[2]; caco-2, 7 μM",21.4%
same,percentage of late apoptotic cells,"[2]; caco-2, 7 μM",38.5%
same,cell population in early apoptotic phase,"[2]; caco-2, 9 μM",14.7%
same,percentage of late apoptotic cells,"[2]; caco-2, 9 μM",56.8%
